Measured values: patent US12014835B2, “Methods for evaluating therapeutic benefit of combination therapies” (Vanderbilt University, priority 2020, dated 2024)

Tested on: PC9 cells
Test: MuSyC drug combination screen with osimertinib, DIP rate, high-throughput in vitro assay
Type: cell-based
Settings: drug-synergy diagram
Procedure: FIG. 2A illustrates a high-throughput pipeline for generating dose-response surfaces. Initial drug matrix is prepared on a 384-well plate and transferred to cells seeded at subconfluent densities. Cells are engineered to express a fluorescently tagged histone (H2B-RFP), allowing for cell counts using automated segmentation software. Each condition is imaged every 6-8 h, resulting in growth curves. The growth curves are fit to determine the drug-induced proliferation (DIP) rate (slope of dotted line, vide infra) to quantify drug effect. This matrix of DIP rates is fit to our equation to extract synergy parameters.
MuSyC was applied to evaluate the synergistic potency and efficacy of a 64-drug panel (see Table 1 for drugs, drug classes, nominal targets, and tested concentration ranges) in combination with osimertinib, a mutant EGFR-tyrosine kinase inhibitor recently approved for first-line treatment of EGFR-mutant NSCLC. The selected drugs span a diverse array of cellular targets that can be broadly grouped into four categories: kinases, receptors and channels, epigenetic regulators, and mitotic checkpoints, each with several sub-categories. The combinations were tested in PC9 cells, a canonical model of EGFR-mutant NSCLC using a high-throughput, in vitro, drug-screening assay (FIG. 2A). […]

CCC1=C[C@@H]2CN(C1)Cc1c([nH]c3ccccc13)[C@@](C(=O)OC)(c1cc3c(cc1OC)N(C)[C@H]1[C@@](O)(C(=O)OC)[C@H](OC(C)=O)[C@]4(CC)C=CCN5CC[C@]31[C@@H]54)C2 [vinorelbine]
synergistic efficacy (in words): upward shift along the axis of synergistic efficacy
